In this assay the target is Phosphatidylinositol 4,5-bisphosphate 3-kinase catalytic subunit beta isoform (Homo sapiens, UniProt P42338).

Chains of the proteins cited; added tags and fusions are not shown. Lines headed by an entry give the natural chain unless they say otherwise; changes in a name come on top.
UniProt P42338: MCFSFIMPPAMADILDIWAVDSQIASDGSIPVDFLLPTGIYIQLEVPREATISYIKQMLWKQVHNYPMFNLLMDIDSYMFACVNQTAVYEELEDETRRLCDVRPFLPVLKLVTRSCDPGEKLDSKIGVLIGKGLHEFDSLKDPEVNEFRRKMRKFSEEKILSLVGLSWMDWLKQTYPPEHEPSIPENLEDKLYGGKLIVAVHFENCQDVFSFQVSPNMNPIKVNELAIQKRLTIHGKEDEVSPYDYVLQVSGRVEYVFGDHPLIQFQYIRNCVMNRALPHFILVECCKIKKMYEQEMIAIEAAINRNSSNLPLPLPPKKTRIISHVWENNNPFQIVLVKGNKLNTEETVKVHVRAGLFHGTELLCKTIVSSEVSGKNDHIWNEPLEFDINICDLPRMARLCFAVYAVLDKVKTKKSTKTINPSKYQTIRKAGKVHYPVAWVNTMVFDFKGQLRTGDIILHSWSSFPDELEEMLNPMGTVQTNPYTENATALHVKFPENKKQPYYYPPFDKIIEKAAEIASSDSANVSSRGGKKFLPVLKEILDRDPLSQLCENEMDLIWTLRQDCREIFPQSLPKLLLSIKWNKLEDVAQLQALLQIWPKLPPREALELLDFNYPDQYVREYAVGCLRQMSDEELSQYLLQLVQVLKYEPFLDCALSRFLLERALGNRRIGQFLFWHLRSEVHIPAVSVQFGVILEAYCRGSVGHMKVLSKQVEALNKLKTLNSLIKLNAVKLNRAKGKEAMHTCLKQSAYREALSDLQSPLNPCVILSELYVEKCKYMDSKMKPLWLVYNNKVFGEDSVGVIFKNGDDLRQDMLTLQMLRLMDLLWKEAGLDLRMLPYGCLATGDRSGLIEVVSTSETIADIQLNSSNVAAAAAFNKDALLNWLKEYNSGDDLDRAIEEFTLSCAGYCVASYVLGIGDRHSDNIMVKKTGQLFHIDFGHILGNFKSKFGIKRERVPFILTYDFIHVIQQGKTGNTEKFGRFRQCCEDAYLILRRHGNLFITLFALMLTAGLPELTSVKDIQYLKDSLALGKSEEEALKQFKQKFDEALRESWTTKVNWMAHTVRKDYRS

In the case of `Cc1cc(-c2cc(-c3cc(S(=O)(=O)NO[C@@H]4CCOC4)ccc3C)cnc2N)on1`, the half-inhibitory concentration (IC50) (usually the midpoint of a concentration-inhibition curve) is 880 nM.

For the origin of these results see ChEMBL document CHEMBL5725838, “Amino pyridine derivatives as phosphatidylinositol 3-kinase inhibitors” (2018).
